{"source": "paper PMC5706069", "about": "(2017)", "key": {"human KOR": {"target": "human KOR (Homo sapiens, UniProt P41145)", "assay": "Competition binding assay, [3H]HS665, CHO-hKOR cell membranes", "conditions": "ratio of Ki values"}, "human DOR": {"target": "human DOR (Homo sapiens, UniProt P41143)", "assay": "Competition binding assay, [3H]diprenorphine, CHO-hDOR cell membranes", "conditions": "ratio of Ki values"}, "human MOR": {"target": "human MOR (Homo sapiens, UniProt P35372)", "assay": "[35S]GTPγS binding assay using CHO-hMOR cell membranes", "format": "biochemical", "conditions": "read-out: functional activity [35S]GTPγS MOR % stim"}}}
{"smiles": "CO[C@@]12CCC[C@]3(C)Oc4c(O)ccc5c4[C@@]31CCN(C)[C@@H]2C5", "note": "[Compound 4a, 5β,17-Dimethyl-4,5α-epoxy-3-hydroxy-14β-methoxymorphinan]", "values": [{"measurement": "selectivity KOR/MOR", "setting": "human KOR", "value": 23}, {"measurement": "selectivity DOR/MOR", "setting": "human DOR", "value": 38}, {"measurement": "Emax", "setting": "human MOR", "value": "104 ± 3", "unit": "%"}]}
